From US4174402A, “Method for the prophylaxis of SRS-A-induced symptoms” (priority 1978, dated 1979)

System: histamine
Assay: Test Procedure 5: histamine-induced bronchoconstriction in anesthetized guinea pigs
Format: in vivo, guinea pig
Experimental: Guinea pigs weighing 350 to 400 g were anesthetized ip with 1.5 g/kg urethane and prepared for measurements of resistance to pulmonary inflation using a slightly modified Konzett-Rossler method (see Test Procedure 2). […] The experimental procedure was started after each guinea pig had attained its maximal, repeatable response to histamine. […] Artificial respiration was resumed 25 minutes later. Thirty minutes after the administration of one of the drugs, tne guinea pigs received two of three injections of histamine at 3-minute intervals. The average of these histamine responses (increases in resistance) was expressed as percent of the maximal histamine response obtained with the same guinea pig before the administration of the drug. In addition to sc administration, compound b was also studied following po administration. In these studies, the time interval between po medication and the secondary histamine challenges was increased to 45 minutes.

## CN(C)CCOC(c1ccccc1)c1ccccc1 [Diphenhydramine, diphenhydramine, reference compound]
Sc 0.10 mg/kg
  % Inhibition: 6%
  Histamine-Response in % of Premed. Histamine Response: 94 ± 10%
Sc 0.33 mg/kg
  % Inhibition: 49%
  Histamine-Response in % of Premed. Histamine Response: 51 ± 17%
Sc 1.00 mg/kg
  % Inhibition: 76%
  Histamine-Response in % of Premed. Histamine Response: 24 ± 6%
sc, doses up to 1.0 mg (base)/kg
  inhibition of histamine responses: dose-related inhibition
